# Yeast mating assay 2: variants of the scFv Ab-91

Target peptide (SARS-CoV-2 spike, HR2 region): PDVDLGDISGINAS

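AAYL51 was designed without a model: most single CDR substitutions and a random sample of double and triple ones. Affinity was read by AlphaSeq, a pooled yeast mating assay with surface-displayed partners. Pairs that bind mate more often; barcode pairs of the diploids are counted by sequencing. A regression on co-assayed BCL2-family reference pairs converts the normalised counts of each replicate to an apparent Kd. Each pool was mated in three replicate cultures.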

Ab-91 is the parent antibody, in scFv form: VL, then a 15-residue (Gly4Ser)3 linker, then VH. The light chain is unchanged in all variants.
VL: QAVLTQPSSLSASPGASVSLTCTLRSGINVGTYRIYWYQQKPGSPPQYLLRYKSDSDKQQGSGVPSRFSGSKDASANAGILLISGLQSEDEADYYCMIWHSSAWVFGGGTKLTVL
VH: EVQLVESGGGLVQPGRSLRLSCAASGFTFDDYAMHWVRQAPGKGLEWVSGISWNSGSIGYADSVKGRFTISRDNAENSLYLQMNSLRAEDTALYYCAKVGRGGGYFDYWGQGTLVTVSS

Substitutions are numbered in sequence along the VH above, starting at 1 (not Kabat).
This list gathers variants with a substitution at G104 (VH, numbered from residue 1).
Values are apparent Kd, the geometric mean of the replicates that gave a signal; lower means stronger binding.
"nd" marks a missing value. The strain was present, yet no cells mated with the target were sequenced in any replicate, which points to weak or no binding.

Variant H35N+G104R+Y108L showed 11 µM (1 of 3 replicates). Variant H35I+R101F+G104N showed 32 µM (1 of 3 replicates). For Y32T+V64H+G104Y, the assay gave nd (0 of 3 replicates). For G59P+G104E+Y108R, the assay gave nd (0 of 3 replicates). Variant S57T+D62I+G104F gave 70 µM (1 of 3 replicates).

Variant D30N+A61R+G104N showed 30 nM (3 of 3 replicates). With G56N+V99H+G104R the result was nd (0 of 3 replicates). With Y32A+K65F+G104K the result was nd (0 of 3 replicates). For I51C+D62L+G104E, the assay gave 140 µM (1 of 3 replicates). Variant D31P+I58L+G104L gave nd (0 of 3 replicates).

Variant H35I+Y60S+G104E showed 52 µM (2 of 3 replicates). With M34S+G104Y+F106I the result was nd (0 of 3 replicates). With F27C+R101Y+G104L the result was nd (0 of 3 replicates). For A33D+G102Y+G104C, the assay gave nd (0 of 3 replicates). Variant G56K+D62E+G104N gave 190 µM (2 of 3 replicates).

Variant Y32M+V99I+G104R gave 160 nM (3 of 3 replicates). With F27G+W53T+G104A the result was 27 µM (2 of 3 replicates). Variant G26L+D30V+G104F gave 79 µM (3 of 3 replicates). Variant T28L+W53C+G104Y showed 18 µM (3 of 3 replicates). With A33F+M34T+G104V the result was 40 µM (2 of 3 replicates).

With Y32C+S55A+G104K the result was 16 µM (1 of 3 replicates). Variant G104S showed nd (0 of 3 replicates). With T28Q+G103L+G104N the result was 47 µM (1 of 3 replicates). Variant A33D+G104M gave 6.4 µM (1 of 3 replicates). With M34D+D62G+G104P the result was nd (0 of 3 replicates).

With D30L+G104I the result was 64 nM (3 of 3 replicates). Variant M34E+I51A+G104W gave 15 µM (3 of 3 replicates). For F29V+G104P+Y105N, the assay gave 47 µM (1 of 3 replicates). For I51L+G104S+Y108L, the assay gave 210 µM (2 of 3 replicates). For H35Q+A61G+G104I, the assay gave 48 µM (2 of 3 replicates).

Variant M34L+V99S+G104T showed nd (0 of 3 replicates). Variant A61R+G102S+G104P showed 39 µM (3 of 3 replicates). For F29W+Y60M+G104Q, the assay gave 65 µM (2 of 3 replicates). For G102F+G104Q, the assay gave 160 nM (3 of 3 replicates). With S55Q+G104C the result was 350 µM (3 of 3 replicates).

Variant H35Q+G104H+Y105V showed 38 µM (1 of 3 replicates). Variant N54F+S55Q+G104I gave nd (0 of 3 replicates). Variant A33W+V64F+G104A gave nd (0 of 3 replicates). Variant G59L+G104K+Y108L gave nd (0 of 3 replicates). Variant G104I+Y105P gave 35 nM (3 of 3 replicates).

For S52H+S57N+G104E, the assay gave nd (0 of 3 replicates). Variant G26S+Y60V+G104N showed 20 µM (1 of 3 replicates). For G50D+I51P+G104C, the assay gave nd (0 of 3 replicates). With V99T+G104R the result was 77 µM (2 of 3 replicates).

Extract of 4 entries:

{"changes": "H35N+G104R+Y108L", "apparent Kd": "11 µM", "seen in": "1/3"}
{"changes": "V99T+G104R", "apparent Kd": "77 µM", "seen in": "2/3"}
{"changes": "A33D+G102Y+G104C", "apparent Kd": "nd", "seen in": "0/3"}
{"changes": "S57T+D62I+G104F", "apparent Kd": "70 µM", "seen in": "1/3"}

Nonspecific signal, from three strains lacking the peptide, appeared in 21% of pairings of library AAYL51, centred on 34 µM (5% of these signals below 1.8 µM); values are not corrected for it.
For reference, the parent read 72 nM as the reference entry and 7.5 nM as a member of this library.

Data: MIT Lincoln Laboratory AlphaSeq set, Engelhart et al. 2022, doi:10.1038/s41597-022-01779-4, as distributed in FLAb.